Measured values published in patent US9963439B2, “Specific inhibitors of cytochrome P450 26 retinoic acid hydroxylase” (University of Washington Through its Center for …, priority 2013, dated 2018).

Protein sequences, listed by entry. Tags and fused reporters are not part of them. Lines headed by an entry give the natural chain unless they say otherwise; changes in a name come on top.
UniProt O43174: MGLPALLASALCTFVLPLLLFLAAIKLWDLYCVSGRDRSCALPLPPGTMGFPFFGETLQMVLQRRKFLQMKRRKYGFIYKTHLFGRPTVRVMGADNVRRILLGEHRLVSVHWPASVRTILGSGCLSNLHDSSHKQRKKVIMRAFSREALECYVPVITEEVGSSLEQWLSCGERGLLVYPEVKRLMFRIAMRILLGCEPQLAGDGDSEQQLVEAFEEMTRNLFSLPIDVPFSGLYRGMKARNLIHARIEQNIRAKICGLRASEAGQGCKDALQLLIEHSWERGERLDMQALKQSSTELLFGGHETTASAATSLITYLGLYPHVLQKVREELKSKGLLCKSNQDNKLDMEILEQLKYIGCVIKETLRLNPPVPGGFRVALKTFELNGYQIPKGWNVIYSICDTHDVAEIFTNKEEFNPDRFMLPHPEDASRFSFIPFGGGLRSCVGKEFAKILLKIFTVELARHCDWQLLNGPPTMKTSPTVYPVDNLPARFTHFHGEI

What was measured:
CYP26A1 = CYP26A1 (Homo sapiens (Human), UniProt O43174); experiment: CYP26A1 inhibition assay (9-cis-4-OH-RA formation from 9-cis-RA, recombinant microsomes); type: biochemical; conditions: Table 5
[1] = animal models; cited from earlier work

IC50 (CYP26A1) [µM] | Compound | effect on concentration of atRA in vivo [1]
1.9 | Clc1cccc(C(c2ccc3[nH]cnc3c2)n2ccnc2)c1 (centres unmarked) [liarozole] | –
– | CC(=O)N1CCN(c2ccc(OCC3COC(Cn4ccnc4)(c4ccc(Cl)cc4Cl)O3)cc2)CC1 (centres unmarked) [ketoconazole] | increase the concentration of atRA in vivo
